Test results published in patent US20250313548A1 (Actio Biosciences, Inc., priority 2023, published 2025).

Amino acid sequences for entries named in this document (tags omitted).
UniProt Q5JUK3, whole entry: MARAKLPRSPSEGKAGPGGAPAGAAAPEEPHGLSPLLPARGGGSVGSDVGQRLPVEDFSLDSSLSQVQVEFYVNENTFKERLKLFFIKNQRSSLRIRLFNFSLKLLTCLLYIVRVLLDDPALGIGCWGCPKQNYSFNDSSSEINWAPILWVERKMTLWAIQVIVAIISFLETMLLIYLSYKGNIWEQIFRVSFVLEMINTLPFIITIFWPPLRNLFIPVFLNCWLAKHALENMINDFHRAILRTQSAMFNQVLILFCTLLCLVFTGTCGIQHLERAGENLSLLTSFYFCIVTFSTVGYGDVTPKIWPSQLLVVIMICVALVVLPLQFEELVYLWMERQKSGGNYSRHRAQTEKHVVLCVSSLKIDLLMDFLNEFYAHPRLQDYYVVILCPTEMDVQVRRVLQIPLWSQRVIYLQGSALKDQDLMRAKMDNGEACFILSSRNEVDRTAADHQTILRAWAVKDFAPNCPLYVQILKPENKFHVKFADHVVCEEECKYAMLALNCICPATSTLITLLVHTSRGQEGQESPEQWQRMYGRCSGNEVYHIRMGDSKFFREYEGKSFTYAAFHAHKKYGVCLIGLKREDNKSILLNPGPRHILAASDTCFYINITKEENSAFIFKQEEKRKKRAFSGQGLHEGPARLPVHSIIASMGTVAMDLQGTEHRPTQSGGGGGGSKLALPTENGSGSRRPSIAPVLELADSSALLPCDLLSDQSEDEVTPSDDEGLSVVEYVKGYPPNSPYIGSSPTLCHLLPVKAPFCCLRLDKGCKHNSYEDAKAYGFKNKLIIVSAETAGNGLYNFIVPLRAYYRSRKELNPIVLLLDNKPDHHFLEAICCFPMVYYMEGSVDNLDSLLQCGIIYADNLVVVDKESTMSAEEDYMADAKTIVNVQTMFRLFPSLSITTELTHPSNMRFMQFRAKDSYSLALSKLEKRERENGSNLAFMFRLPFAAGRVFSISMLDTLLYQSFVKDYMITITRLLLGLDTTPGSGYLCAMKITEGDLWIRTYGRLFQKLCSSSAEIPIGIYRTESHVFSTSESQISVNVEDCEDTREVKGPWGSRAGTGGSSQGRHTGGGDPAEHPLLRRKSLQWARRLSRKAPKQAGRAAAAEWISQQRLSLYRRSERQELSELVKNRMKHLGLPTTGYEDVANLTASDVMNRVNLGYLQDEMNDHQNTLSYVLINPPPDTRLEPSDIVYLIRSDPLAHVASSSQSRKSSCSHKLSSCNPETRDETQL

Target: human, KCNT1 (Homo sapiens (Human), UniProt Q5JUK3)
Test: FLIPR Tl/K Flux Assay
Details: HEK293 cells stably expressing human KCNT1; Tl+ flux stimulated with EC80 of agonist Loxapine

Structure (SMILES) | IC50 [nM]
Cn1nc(C(F)(F)F)cc1C(=O)N[C@H]1CCCn2nc(-c3ccnc(C(F)(F)F)c3)cc21 | < 250
CC(O)c1cc(-c2cc3n(n2)CCCC3NC(=O)c2cc(C(F)(F)F)nn2C)ccn1 (centres unmarked) | > 1000
